{"source": "patent US7229966B2", "about": "“Compositions and methods for enhanced mucosal delivery of Y2 receptor-binding peptides and methods for treating and preventing obesity” (Nastech Pharmaceutical Company Inc., priority 2002, dated 2007)", "origin": "cited, not measured here", "conditions": "rats; intraduodenal; with 1% (w/v) saline dispersion of polycarbophil; cited from earlier work", "data": [{"substance": "9-desglycinamide, 8-arginine vasopressin [DGAVP]", "values": [{"measurement": "increase in bioavailability compared to aqueous solution without polymer", "value": "3–5 fold"}]}]}
